{"source": "patent US11897863B2", "about": "“Indazole amine derivative, preparation method therefor and medical use thereof” (ZHEJIANG HISUN PHARMACEUTICAL CO., LTD., priority 2018, dated 2024)", "test": "Solubility test in phosphate buffer solution (PBS, pH7.4)", "format": "physicochemical", "settings": "PBS pH 7.4, room temperature, LC-UV", "method": "1.5 mg of the test compound was taken, and PBS was added thereto to prepare the test solution with theoretical concentration of 2 mg·mL^−1. The test solution was ultrasonicated for 10 min, and rotated on a rotating tray at room temperature for at least 8 h. After the rotation treatment, the test solution was ultrasonicated for 10 min and centrifuged at 13000 rpm for 15 min. 100 μL of supernatant was transferred to a 0.6 mL new tube for spinning and rinsing for 5 min. 500 μL of supernatant was transferred into the above rinsed 0.6 mL tube. Then the tube was centrifuged at 13000 rpm for 15 min, and the supernatant was taken (or diluted) for analysis by LC-UV. Sample concentration was quantified by standard curve fitting (3 points)."}
{"smiles": "CN(C)CCn1cc2cc(NC(=O)c3cccc(C(F)(F)F)n3)c(C(C)(C)O)cc2n1", "note": "[Compound 1, N-(2-(2-(dimethylamino)ethyl)-6-(2-hydroxypropan-2-yl)-2H-indazol-5-yl)-6-(trifluoromethyl)pyridin-2-carboxamide]", "values": [{"measurement": "Solubility in phosphate buffer solution (PBS, pH 7.4)", "result": 602, "unit": "uM"}]}
